AlphaSeq binding of Ab-91 heavy chain variants to a spike HR2 peptide

Reference: Engelhart et al. 2022, doi:10.1038/s41597-022-01779-4. File: FLAb, binding data.

Target: peptide PDVDLGDISGINAS, taken from heptad repeat 2 (HR2) of SARS-CoV-2 spike.

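The starting antibody came from a phage panning campaign against this peptide. Library AAYL51 holds single substitutions and randomly drawn double and triple substitutions in the CDRs. The scFvs were displayed on barcoded MATa yeast, the peptide on MATalpha yeast. Binding brings cells together so that they mate, and sequencing counts the barcode pairs among the diploids. Each replicate has its own calibration line, from reference interactions of the BCL2 family. There are three technical replicates.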

Ab-91 is the parent antibody, in scFv form: VL, then the linker GGGGSGGGGSGGGGS, then VH. The light chain is unchanged in all variants.
VL: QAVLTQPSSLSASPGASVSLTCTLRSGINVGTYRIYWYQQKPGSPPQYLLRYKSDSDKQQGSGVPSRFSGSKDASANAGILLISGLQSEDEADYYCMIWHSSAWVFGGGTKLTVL
VH: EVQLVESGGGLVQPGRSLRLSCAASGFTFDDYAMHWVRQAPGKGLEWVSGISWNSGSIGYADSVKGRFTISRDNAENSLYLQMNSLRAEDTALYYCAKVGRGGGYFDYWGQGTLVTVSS

Substitutions are numbered in sequence along the VH above, starting at 1 (not Kabat).
Each Kd is an estimate from the mating assay, the geometric mean of the replicates in which the pair was seen; lower is stronger.
An entry "nd" has no value in the source: the pair was not observed among the diploids in any replicate. This suggests poor binding but is not conclusive.
Background: pairings of library AAYL51 with three empty control strains gave a value in 21% of cases (median 34 µM, 5th percentile 1.8 µM). Values in that range, when seen in few replicates, are hard to tell from nonspecific mating.

apparent Kd	replicates with signal	changes
26 µM	2/3	G26I D31K G50V
nd	0/3	F27A Y105Q Y108L
nd	0/3	N54V G104P Y108E
300 nM	3/3	D30P A61F G104R
43 µM	1/3	F29S H35T Y108N
64 µM	1/3	Y32W A33R M34N
84 µM	2/3	G50C N54T R101Q
33 µM	2/3	H35C G100P
nd	0/3	F27C G100P D107R
14 µM	1/3	I51C W53C G100Q
nd	0/3	M34G D62I
nd	0/3	S55T G56W G104I
82 µM	2/3	F29W S52R G104C
290 µM	2/3	A33F G59A F106I
nd	0/3	I58G R101S
80 µM	2/3	I51M S63H V99W
270 µM	1/3	F29G D31V Y60I
76 µM	3/3	F27N Y32F K65S
nd	0/3	D31I M34K V64L
nd	0/3	S55V S63F
68 µM	1/3	Y32W H35M S63R
nd	0/3	N54E S57N F106V
51 µM	1/3	G26R T28N
nd	0/3	Y32Q Y60F D107Y
120 µM	1/3	G26R S63H V64M
16 µM	2/3	T28D G50W V99I
24 µM	3/3	G26N G102N
180 µM	2/3	Y32G A33W S63N
nd	0/3	H35V S57H G100T
nd	0/3	S57C V64E G104A
nd	0/3	M34K I51F S55W
11 µM	2/3	F27W N54V
2.5 mM	1/3	M34T G100K Y108Q
nd	0/3	M34Q Y60N
210 µM	2/3	V64N F106G D107H
14 µM	1/3	V99C G102E Y105K
nd	0/3	D31G G59F V99A
nd	0/3	M34R S55N
40 nM	3/3	D30R S63L K65M
nd	0/3	F27A G50R G56I
nd	0/3	S57C Y60N S63N
nd	0/3	F29V G50H S55N
7.2 µM	3/3	S52G N54Y Y105F
70 µM	3/3	M34W R101F F106Y
nd	0/3	A61D G100T G102Q
120 µM	1/3	N54A A61L K65I
150 µM	1/3	I51A D107L
300 µM	1/3	G100T Y105Q F106D
nd	0/3	D30S Y32K H35L
nd	0/3	F29C G59T G104S
nd	0/3	A61E G102N G104N
120 µM	3/3	G56M Y105M
nd	0/3	H35S G56T G102R
2.9 µM	2/3	S52D R101G Y108S
nd	0/3	G59C G100N Y108A
83 µM	1/3	G59K V64E F106Q
nd	0/3	D62A V64F Y108R
nd	0/3	R101K G102T
nd	0/3	D62V G100R R101W
170 µM	3/3	G59I S63C Y105Q
21 µM	2/3	Y60Q G104A F106D
200 nM	3/3	D31S Y32W A61Q
nd	0/3	F29D S57H
21 µM	1/3	Y32A M34Y G102I
8.4 µM	1/3	D31T W53V G104Y
nd	0/3	G56L D62V V64R
2.3 µM	1/3	D30R G56C G103D
190 µM	1/3	S52L I58V Y105H
7.0 µM	1/3	H35C S55D V99I
150 µM	2/3	G56D S63T
8.9 µM	1/3	D62T K65I R101L
220 µM	1/3	S55I V64R V99Y
10 µM	1/3	S52F D107N Y108G
120 µM	3/3	A33E D62V G104F
590 nM	3/3	V64C G104C
nd	0/3	N54A G100L D107K